Assay results as given in US6127337A, “Bivalent thrombin inhibitors” (National Research Council of Canada, priority 1993, dated 2000).

Settings: given as the reason for not testing

solubility remark | Substance
insolubility | 2,4,6 triisopropylbenzensulfonyl-Arg (D-Pipecolic acid)-(12-aminododecanoicacid)-4-aminobutyric acid)-Asp-Phe-Glu-Pro-Ile-Pro-Tyr-OH [BCH-2444]
insolubility | tert-butylbezenesulfonyl-Arg (D-Pipecolic acid)-(12-aminododecanoic acid)-4-aminobutyric acid)-Asp-Phe-Glu-Pro-Ile-Pro-Tyr-OH [BCH-2741]
